# Antibody variant affinities, Ab-14 heavy chain, assay B

All variants were tested on one target, the spike HR2 peptide PDVDLGDISGINAS (SARS-CoV-2).

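The parent was found by panning a naive human phage display library on the peptide. This is the validation round: designs drawn from the data on random variants, tested in the same kind of assay. Several design methods are mixed in this list. The scFvs were displayed on barcoded MATa yeast, the peptide on MATalpha yeast. Binding brings cells together so that they mate, and sequencing counts the barcode pairs among the diploids. A regression on co-assayed BCL2-family reference pairs converts the normalised counts of each replicate to an apparent Kd. Each pool was mated in six replicate cultures.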

Parent scFv Ab-14: VH joined to VL by three GGGGS repeats. Changes lie in the heavy chain CDRs alone.
VH: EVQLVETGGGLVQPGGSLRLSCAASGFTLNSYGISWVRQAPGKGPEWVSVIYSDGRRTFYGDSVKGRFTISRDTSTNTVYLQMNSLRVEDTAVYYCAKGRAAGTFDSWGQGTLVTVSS
VL: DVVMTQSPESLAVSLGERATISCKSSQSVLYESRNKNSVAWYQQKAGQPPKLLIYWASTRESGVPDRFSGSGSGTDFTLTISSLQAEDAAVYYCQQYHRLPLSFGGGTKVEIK

Changes read parent residue, position, new residue, counted from the first residue of the VH shown.
Variants here have at most six changes.
Numbers give log10(Kd / nM), so 0 is 1 nM and 3 is 1 µM. Smaller is tighter.
Where no diploid with the target was found in that replicate, the entry reads "nd": below detection, most likely a poor binder, though not proof of it.
Background: pairings of all heavy chain designs with three empty control strains gave a value in 1% of cases (median 2.08, 5th percentile 0.84). Values in that range, when seen in few replicates, are hard to tell from nonspecific mating. Also given: how often the same scFv was detected with the empty control strains.
Of ten entries with the parent sequence, four were seen in most replicates (averages 0.34 to 2.37), three in one and three in none, so single entries are noisy.
The authors' rule: three or more of the six replicates give a measured affinity, fewer mean a poor binder.
Values of this round are not directly comparable with the first-round values of the same sequences.

The variant T28P S31E A101Q S107T gave 0.59, 0.11, 0.24, 0.41, 0.25, 0.88 (controls 0 of 18).
The variant S31N S53A R100D A102P gave nd, nd, nd, -0.27, nd, nd (controls 0 of 18).
The variant G26K T28D A101T gave 0.40, 0.21, 0.26, 0.28, 0.63, 0.61 (controls 0 of 18).
The variant T28S S63Q A101E gave 0.28, 0.31, 0.60, 0.41, 0.49, 0.64 (controls 0 of 18).
The variant S31D F59L Y60V G61I gave nd, nd, nd, 1.57, nd, 1.91 (controls 1 of 18).
The variant S31E G103V D106G S107I gave nd, nd, nd, nd, nd, nd (controls 0 of 18).
The variant S31D R56F F59Q G61M G103N F105I gave nd, nd, 2.92, nd, nd, nd (controls 0 of 18).
The variant T28V G61T R100E gave nd, nd, 1.34, 0.75, nd, nd (controls 0 of 18).
The variant T28L R57N G61S A102G gave nd, nd, nd, nd, nd, nd (controls 0 of 18).
The variant T28K G61I A101T gave nd, nd, nd, nd, nd, nd (controls 0 of 18).
The variant T28S S31E D62N gave 0.38, 0.31, 0.24, 0.04, 0.18, 0.41 (controls 2 of 18).
The variant L29I S31D R57C S63D gave nd, nd, nd, nd, nd, nd (controls 0 of 18).
The variant S53A A101N A102T D106L gave nd, nd, nd, nd, nd, nd (controls 0 of 18).
The variant T28D R56K A101E S107T gave 0.05, -0.20, 0.05, -0.42, -0.13, -0.16 (controls 1 of 18).
The variant T28D G61A R100N gave nd, nd, nd, nd, nd, nd (controls 0 of 18).
The variant T28Y S31D A101T S107T gave 1.78, 1.53, 2.01, 1.45, 1.68, 1.33 (controls 2 of 18).
The variant T28E F59A R100K A101N gave 1.07, 1.20, 0.60, 0.71, 0.91, 0.56 (controls 2 of 18).
The variant T28D S31E S53A G61S R100E S107D gave -0.27, -0.01, -0.44, -0.52, -0.38, -0.73 (controls 0 of 18).
The variant F27Q S31E S53A R56E gave -1.22, -0.69, -0.97, 0.03, -1.32, -0.46 (controls 0 of 18).
The variant F27K S31E R100T gave nd, nd, nd, nd, nd, nd (controls 0 of 18).
The variant T28G S31E F59Q G61I gave 0.39, 0.33, 0.60, 0.46, 0.42, 0.79 (controls 0 of 18).
The variant T28H R100K A101T gave nd, 0.72, nd, 1.57, 1.12, 1.50 (controls 0 of 18).
The variant T28S S31E R100S S107K gave -0.11, 0.03, -0.11, 0.44, 0.11, -0.03 (controls 0 of 18).
The variant F27M G61S A102M gave 1.79, nd, 2.68, 2.60, 1.81, 3.52 (controls 1 of 18).
The variant S31E S53A G103A S107I gave nd, nd, nd, nd, nd, nd (controls 0 of 18).
The variant T28G Y32F G99R gave nd, nd, nd, nd, nd, nd (controls 0 of 18).
The variant T28W S31M G61A A101T gave nd, nd, nd, nd, nd, nd (controls 0 of 18).
The variant L29V R100K gave nd, 2.21, nd, 1.81, nd, nd (controls 0 of 18).
The variant F59Q A101Q gave 2.78, 2.14, 1.84, nd, nd, nd (controls 0 of 18).
The variant N30D S53A S63R gave 1.71, 1.32, 1.23, 0.83, 1.46, 2.34 (controls 0 of 18).
The variant F27R R56E G61E K65R gave nd, nd, nd, nd, nd, nd (controls 0 of 18).
The variant T28E R100S A101T gave nd, -0.50, nd, 0.79, nd, nd (controls 0 of 18).
The variant T28N S31M R100Q gave 1.53, 1.23, 1.28, 1.43, 0.87, 1.16 (controls 1 of 18).
The variant T28S S31D S63A R100K gave 0.60, 0.56, 0.52, 0.42, 0.15, 0.19 (controls 0 of 18).
The variant T28D S31E S53A G61S R100E S107W gave 0.36, 0.99, nd, -0.82, nd, -0.07 (controls 0 of 18).
The variant S31E G33P F59A G61T gave nd, nd, nd, nd, nd, nd (controls 0 of 18).
The variant T28E G61A S63Q R100Q A101T gave -0.43, 0.05, -0.19, 0.37, 0.28, 0.91 (controls 0 of 18).
The variant T28D S31E S53A G61I R100E S107M gave -0.67, -0.78, -0.27, 0.11, -0.76, 0.02 (controls 0 of 18).
The variant S31D R100K D106H gave nd, nd, nd, nd, nd, nd (controls 0 of 18).
The variant G26Q S31F D54F G61S A101H A102G gave nd, nd, nd, nd, nd, nd (controls 0 of 18).
The variant L29P K65R F105M S107K gave nd, nd, nd, nd, nd, nd (controls 1 of 18).
The variant T28D G61D A101I D106N gave nd, 1.85, 1.35, 1.52, 2.52, 1.60 (controls 1 of 18).

The first 5 variants above that were never detected:

changes	log10 Kd (nM) by replicate	control signals
S31E G103V D106G S107I	nd, nd, nd, nd, nd, nd	0 of 18
T28L R57N G61S A102G	nd, nd, nd, nd, nd, nd	0 of 18
T28K G61I A101T	nd, nd, nd, nd, nd, nd	0 of 18
L29I S31D R57C S63D	nd, nd, nd, nd, nd, nd	0 of 18
S53A A101N A102T D106L	nd, nd, nd, nd, nd, nd	0 of 18

From the AlphaSeq antibody data of Li et al. 2023 (doi:10.1038/s41467-023-39022-2), copy in the FLAb collection.